{"sequences": {"note": "Protein sequences, listed by entry. Tags and fused reporters are not part of them.", "UniProt P35348, whole entry": "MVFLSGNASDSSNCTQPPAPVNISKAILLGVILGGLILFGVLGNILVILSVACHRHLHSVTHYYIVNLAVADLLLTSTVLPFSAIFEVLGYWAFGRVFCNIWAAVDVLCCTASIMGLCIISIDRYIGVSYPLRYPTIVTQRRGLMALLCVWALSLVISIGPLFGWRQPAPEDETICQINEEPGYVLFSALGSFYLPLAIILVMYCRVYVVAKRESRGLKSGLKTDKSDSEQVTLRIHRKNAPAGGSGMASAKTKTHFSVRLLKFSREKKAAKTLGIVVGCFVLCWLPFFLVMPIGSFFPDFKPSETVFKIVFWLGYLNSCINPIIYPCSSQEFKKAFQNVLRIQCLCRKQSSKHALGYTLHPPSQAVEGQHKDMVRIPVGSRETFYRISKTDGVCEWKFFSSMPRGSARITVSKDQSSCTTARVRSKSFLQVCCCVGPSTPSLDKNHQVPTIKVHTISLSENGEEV", "UniProt P08908, whole entry": "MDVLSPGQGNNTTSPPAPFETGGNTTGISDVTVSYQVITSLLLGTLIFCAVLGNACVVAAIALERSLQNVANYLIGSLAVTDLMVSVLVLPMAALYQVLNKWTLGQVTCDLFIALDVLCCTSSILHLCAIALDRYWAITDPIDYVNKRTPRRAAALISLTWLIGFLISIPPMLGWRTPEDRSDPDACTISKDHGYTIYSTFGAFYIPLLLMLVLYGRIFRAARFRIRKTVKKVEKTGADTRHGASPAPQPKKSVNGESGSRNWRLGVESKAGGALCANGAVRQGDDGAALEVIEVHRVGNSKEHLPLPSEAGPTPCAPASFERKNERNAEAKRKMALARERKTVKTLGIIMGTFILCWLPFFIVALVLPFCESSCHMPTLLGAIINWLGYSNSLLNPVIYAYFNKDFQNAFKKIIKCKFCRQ"}, "source": "patent US9290463B2", "about": "“Radiolabeled compounds and uses thereof” (THE TRUSTEES OF COLUMBIA UNIVERSITY IN THE CITY OF NEW YORK, priority 2010, dated 2016)", "key": {"alpha1AR": {"target": "alpha1AR (Homo sapiens (Human), UniProt P35348)", "test": "NIMH-PDSP affinity screen, alpha1AR", "conditions": "selectivity ratio", "method": "(§1) The affinity of 18 for various biogenic amines, brain receptors, and transporters was determined through National Institute of Mental Health Psychoactive Drug Screening Program (NIMH-PDSP). Compound 18 has a Ki of 21.4±0.6 nM for alpha1AR, which is 214 times higher than Ki of 5-HT1AR. This is much better than the Ki of compound 19 for alpha1AR is 6.75 nM, which is only 45 times higher than Ki of 5-HT1AR. […] Compound 18 produced a dose-dependent increase in [^35S]GTPγS binding."}, "5-HT1AR": {"target": "5-HT1AR (Homo sapiens (Human), UniProt P08908)", "test": "[35S]GTPγS binding in membranes of CHO cells stably expressing the human 5-HT1AR", "method": "as §1"}}, "data": [{"smiles": "Cn1c(=O)cnn(CCCCN2CCN(c3ccccc3OCCF)CC2)c1=O", "values": [{"measurement": "Ki for alpha1AR, times higher than Ki of 5-HT1AR", "setting": "alpha1AR", "value": 214, "unit": "times"}, {"measurement": "Maximal stimulated [35S]GTPγS binding Emax", "setting": "5-HT1AR", "value": "80 % of that seen with 5-HT"}, {"measurement": "Effect on [35S]GTPγS binding", "setting": "5-HT1AR; in words", "value": "dose-dependent increase"}]}]}
